From ChEMBL document CHEMBL1649246, “Complete nucleotide sequences of plasmids pEK204, pEK499, and pEK516, encoding CTX-M enzymes in three major Escherichia coli lineages from the United Kingdom, all belonging to the international O25:H4-ST131 clone” (2009)

Test system: Escherichia coli
Assay: Antimicrobial activity against Escherichia coli DH5[alpha]
Assay type: functional

With GENTAMICIN as the sequence, how does the MIC read?
Its MIC is 0.5 µg/mL.
